Measured values reported in patent US20030181659A1, “Thrombopoietin receptor modulating peptide” (priority 2000, published 2003).

Experiments:
[1] = test system: peripheral blood mononuclear cells (PBMC); test: Histamine release in peripheral blood mononuclear cells (ELISA); assay type: cell-based, human
Method: The effect of the Peptide SEQ ID No. 2 on histamine release was tested in vitro in peripheral blood mononuclear cells (PBMC).
PBMC from four different subjects were tested. Leukocyte suspensions were incubated with different concentrations of the peptide with SEQ ID No. 2 in a range from 3 μM to 10 mM. Human anti-IgE antibody and buffer only were used as positive and negative controls, respectively. The amount of histamine released was quantitated with ELISA (IBL, catalogue number RE 59221). The assay sensitivity is 2.4 ng/mL.
The concentration range from 3 μM to 10 mM was elected to evaluate the histamine release of the peptide at levels obtained upon i.v. injection. Thus, a concentration of 30 mg/kg corresponds immediately after injection to ˜38 μM, assuming a distribution volume of 400 ml per kg of tissue. The peptide is known to be distributed freely in the extracellular fluids. Thus, the highest concentration of the peptide at 10 mM is thus in the order of roughly 100 times higher than the highest concentration in the extracellular fluids.

[2] = Detection of IgG antibodies against the peptide in rat serum; assay type: in vivo, rats; details: 80 rat serum samples from Example 8
Method: (§1) Serum samples from monkeys and rats were analysed to detect IgG presence in cynomolgus monkeys and rats which were tested in Examples 8 and 9. In none of the 32 monkey serum samples and the 80 rat serum samples could antibodies against the Peptide with SEQ ID No. 2 be detected.

[3] = Peptide storage stability by HPLC; assay type: physicochemical; details: 1 mM solutions in water, saline or saline with 0.1% human albumin; −20° C., 4° C. and room temperature; 1, 3 and 4 weeks
Method: The HPLC method used was based on UV detection of the sample during elution from a reverse phase column system, C8 MICROSORB MV column (Rainin Instrument Company). The two buffer system begins with 9.5% 5 mM TFA (buffer A) and 5% ACN (buffer B). […] The sample elution period is followed by a brief column wash with an increase of buffer B to 90%.
The stability of wild type TPO-Rp, TPO-Rp 1-18 (R9A, R11A, SEQ ID No. 2) and TPO 4-18 (R9A, R11A, SEQ ID No. 4) was addressed by HPLC analysis after storage of the three peptides at the following three temperatures: room temperature (˜20° C.), 4° C. and −20° C. The peptides were stored as either 1 mg of dry powder or as a 1 mM solution in water, with no excipients in either condition. After establishing the HPLC elution profiles of these three peptides on day 0 the peptide, HPLC elution profiles were re-tested on days two, nine and fourteen.

[4] = Ex vivo degradation of 125I-labelled peptides in pooled rat plasma; assay type: in vitro ADME; details: 37° C., ~1 μM labelled peptide
Method: (§2) The degradation profiles of wild type TPO-Rp, TPO-Rp 1-18 (R9A, R11A, SEQ ID No. 2) and TPO-Rp 4-18 (R9A, R11A, SEQ ID No. 4) were studied in human serum (a pool of serum from 200 patients) and rat plasma (a pool of plasma from 50 animals). In order to enable detection of degradation ^125I-labelled peptides (labelled at Y14) have been used. Only the intact peptide and labelled degradation products are detected by HPLC analysis. Therefore, such analysis performed at different points clearly detects when a given peptide is degraded. Incubation was performed at 37° C. The concentration of labelled peptide was ˜1 μM in these studies.

[5] = 28-day intravenous toxicity study in monkeys
[6] = Detection of IgG antibodies against the peptide in monkey serum; assay type: in vivo, cynomolgus monkeys; details: 32 monkey serum samples from Example 9
Method: as §1

[7] = 28-day intravenous toxicity study in rats; assay type: in vivo, Crl:CD(SD)IGS BR rats
Method: Recovery from effects in the high dose group was assessed via a subsequent 28-day recovery period. […] The vehicle and 45 mg/kg/day groups each consisted of 15 males and 15 females, the 5 mg/kg/day and 15 mg/kg/day groups each consisted of 10 males and 10 females, and the three toxicokinetic groups each consisted of 9 males and 9 females.
Detailed physical examinations were performed and individual body weights and food consumption were recorded weekly. Clinical pathology parameters (haematology, serum chemistry and urinalysis) were evaluated prior to the initiation of dosing, at the midpoint of the treatment period and at the primary-and recovery necropsies. Bone marrow smears were collected during the pretest period and at the scheduled necropsies. Serum was collected for antibody determinations at the primary necropsy. Ophthalmic examinations were conducted prior to the initiation of dosing, during study week 3 and during the recovery period, study week 7. Complete necropsies were performed on all animals. Selected organs were weighed at the primary and recovery necropsies. Selected tissues collected at the primary necropsy were examined microscopically.
Blood samples were collected for determination of plasma test article levels on days 0, 6, 14, 20 and 27 from a separate set of animals assigned to the toxicokinetic portion of the study.

[8] = Ex vivo degradation of 125I-labelled peptides in pooled human serum; assay type: in vitro ADME; details: 37° C.
Method: as §2

in vivo = details: both, cynomolgus monkey
carboplatin treated mice = details: mouse, in vivo
Text: The model used for the in vivo experiments was reported previously (Akahori et al. (1996) Stem Cells 14:678-689, Akahori et al. (1996) Br. J. Haematol. 94:722-728, Shibuya et al. (1998) Blood 91:37-45, Andrews et al. (1996) Stem Cells 14:661-677). Improvements and modifications that were introduced are indicated below.
Each test group (PBS, TPO, or TPO-Rp) was given as a single daily dose administered by intraperitoneal injection. Daily doses were begun on day 0 and continued throughout the duration of the experimental period (day 10). Two i.p. injections of carboplatin 90 mg/kg each (PBS for group 11) were given on days 0 and 4.
Blood collections were taken on days −0 (basal), 8, 11, 14, and 18. Blood was obtained by sampling from the tail of mice (8 week old male […] mice), followed by cauterisation. A volume of 80 μl of blood from each mouse was collected into a heparinized blood collection tube. The 80 μl of blood was then mixed with 160 μl of saline containing sufficient EDTA (0.225%) to provide for anticoagulation.
[…] Carboplatin is used to induce thrombocytopenia. […]

[9] = In vivo degradation in rats after intravenous bolus administration; details: rat, blood, 3 mg/kg intravenous bolus, read-out: calculated half-life in blood
[10] = 5, 15 and 30 mg/kg/day i.v., 28 days, monkeys
[11] = 5, 15 and 45 mg/kg/day i.v., 28 days, rats

SMILES: CC(C)C[C@H](NC(=O)[C@H](CCC(N)=O)NC(=O)[C@H](CC(C)C)NC(=O)[C@H](CCCNC(=N)N)NC(=O)[C@H](Cc1ccc(O)cc1)NC(=O)[C@H](CCCNC(=N)N)NC(=O)[C@H](CO)NC(=O)[C@H](C)NC(=O)[C@@H]1CCCN1C(=O)[C@H](C)NC(=O)[C@H](CC(C)C)NC(=O)[C@H](CCC(=O)O)NC(=O)[C@H](CC(C)C)NC(=O)[C@@H](NC(=O)CNC(=O)CNC(=O)[C@H](CCCNC(=N)N)NC(=O)[C@H](C)N)[C@@H](C)O)C(=O)O [SEQ ID No. 2]
- histamine release ([1]; peptide 3.3 mM or lower, human PBMC): no effect on histamine release
- histamine release, fold lower than the positive control (anti-IgE) ([1]; peptide 10 mM): ~10 fold
- histamine release ([1]; peptide 10 mM, PBMC): 15 ng/mL
- serum samples with antibodies against the peptide [2]: none
- degradation in HPLC studies [3]: no sign of degradation
- half-life [4]: ~1.1 min
- Body weights, clinical pathology parameters, physiologic parameters, electrocardiographic evaluations and organ weights [5, 10]: unaffected
- deaths [5, 10]: no deaths
- ophthalmological, macroscopic or microscopic findings [5, 10]: no test peptide-related ophthalmological, macroscopic or microscopic findings
- duration of clinical signs ([5]; after i.v. administration, monkeys): no longer evident one hour after administration
- facial flushing (incidence) ([5]; females, 5 mg/kg/day): 2/3
- facial flushing (incidence) ([5]; females, 15 mg/kg/day): 3/3
- flushing of body surfaces (incidence) ([5]; females, 15 mg/kg/day): 2/3
- salivation (incidence) ([5]; females, 15 mg/kg/day): 1/3
- decreased muscle tone (incidence) ([5]; females, 30 mg/kg/day): 1/5
- emesis (incidence) ([5]; females, 30 mg/kg/day): 2/5
- facial flushing (incidence) ([5]; females, 30 mg/kg/day): 5/5
- flushing of body surfaces (incidence) ([5]; females, 30 mg/kg/day): 4/5
- salivation (incidence) ([5]; females, 30 mg/kg/day): 4/5
- tolerability ([5]; male and female monkeys, 28 days, doses up to 30 mg/kg/day): well tolerated
- no-observed-effect level (NOEL) ([5]; male monkeys, based upon facial flushing): 5 mg/kg/day
- compound-related clinical signs ([5]; males, 5 mg/kg/day): no compound-related clinical signs
- facial flushing (incidence) ([5]; males, 15 mg/kg/day): 3/3
- salivation (incidence) ([5]; males, 15 mg/kg/day): 1/3
- decreased muscle tone (incidence) ([5]; males, 30 mg/kg/day): 1/5
- emesis (incidence) ([5]; males, 30 mg/kg/day): 1/5
- facial flushing (incidence) ([5]; males, 30 mg/kg/day): 4/5
- flushing of body surfaces (incidence) ([5]; males, 30 mg/kg/day): 3/5
- salivation (incidence) ([5]; males, 30 mg/kg/day): 3/5
- serum samples with antibodies against the peptide [6]: none
- Survival, body weights, food consumption, clinical pathology parameters, organ weights and bone marrow cytology [7, 11]: unaffected
- ophthalmological, macroscopic or microscopic findings [7, 11]: no peptide-related ophthalmological, macroscopic or microscopic findings
- no-observed-effect-level (NOEL) ([7]; female rats, 28 days i.v.): 45 mg/kg/day
- tolerability ([7]; male and female rats, 28 days i.v.): well tolerated
- improved stability over the wild type oligopeptide [8]: five-fold
- half-life ([8]; human, ~1 μM labelled peptide): ~9.6 min
- NOAEL at 28 days (in vivo): 30 mg/kg/day
- effects on other blood components (carboplatin treated mice): None of the peptides used
- half-life [9]: 7.3 min
